Data: publication PMC8882856

The chains behind the UniProt entries cited, without tags or fusion partners.
UniProt P08588, whole entry: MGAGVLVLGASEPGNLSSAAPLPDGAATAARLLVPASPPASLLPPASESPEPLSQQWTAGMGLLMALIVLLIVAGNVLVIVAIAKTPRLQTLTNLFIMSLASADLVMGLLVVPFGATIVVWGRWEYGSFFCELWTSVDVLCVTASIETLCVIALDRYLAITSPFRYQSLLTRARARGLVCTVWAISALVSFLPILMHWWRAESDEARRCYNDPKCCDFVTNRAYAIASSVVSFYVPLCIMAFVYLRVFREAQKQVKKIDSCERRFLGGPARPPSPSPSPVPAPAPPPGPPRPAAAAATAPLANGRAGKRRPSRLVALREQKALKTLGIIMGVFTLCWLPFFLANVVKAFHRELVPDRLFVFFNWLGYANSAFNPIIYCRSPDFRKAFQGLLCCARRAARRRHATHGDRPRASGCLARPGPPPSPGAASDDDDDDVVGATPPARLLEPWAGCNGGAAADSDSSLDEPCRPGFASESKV

Target: human β1‐adrenoceptor (Homo sapiens, UniProt P08588)
Details: ^3H‐CGP12177 whole cell binding; log values, mean ± s.e.mean; ^app = apparent KD; 'no binding to' = log top concentration

- Log KD β1: −6.03 ± 0.05
SMILES: COc1cccc2c1CCC[C@H]2CN(C)CCc1ccc2ccoc2c1 [A80426]
